Data: ChEMBL document CHEMBL2407059, “Discovery and characterization of carbamothioylacrylamides as EP2 selective antagonists” (ACS Med Chem Lett, 2013)

Tests used:
[1] = species: Homo sapiens; experiment: Selectivity index, ratio of KB for human EP4 receptor to KB for human EP2 receptor
[2] = species: Homo sapiens; experiment: Selectivity index, ratio of KB for human DP1 receptor to KB for human EP2 receptor
[3] = species: Homo sapiens; experiment: Selectivity index, ratio of KB for human IP receptor to KB for human EP2 receptor

COc1ccc(NS(=O)(=O)c2ccc(NC(=S)NC(=O)/C=C/c3ccc(C)cc3)cc2)nn1
Selectivity Index [1]: 340

CCc1nnc(NS(=O)(=O)c2ccc(NC(=S)NC(=O)/C=C/c3ccc(OC)cc3)cc2)s1
Selectivity Index [1]: 340
Selectivity Index [2]: 311

CCc1nnc(NS(=O)(=O)c2ccc(NC(=S)NC(=O)/C=C/c3ccc(F)cc3)cc2)s1
Selectivity Index [3]: 22
Selectivity Index [1]: 443
Selectivity Index [2]: 16700

COc1cc(NS(=O)(=O)c2ccc(NC(=S)NC(=O)c3sc4cc(F)ccc4c3Cl)cc2)nc(OC)n1
Selectivity Index [1]: 7
